Data published in patent publication US20230381162A1, “TREATMENTS OF ANGIOEDEMA” (KALVISTA PHARMACEUTICALS LIMITED, priority 2020, published 2023).

Amino acid sequences for entries named in this document (tags omitted). Residues count along the entry.
UniProt P03952, 20-390 partner limits assumed: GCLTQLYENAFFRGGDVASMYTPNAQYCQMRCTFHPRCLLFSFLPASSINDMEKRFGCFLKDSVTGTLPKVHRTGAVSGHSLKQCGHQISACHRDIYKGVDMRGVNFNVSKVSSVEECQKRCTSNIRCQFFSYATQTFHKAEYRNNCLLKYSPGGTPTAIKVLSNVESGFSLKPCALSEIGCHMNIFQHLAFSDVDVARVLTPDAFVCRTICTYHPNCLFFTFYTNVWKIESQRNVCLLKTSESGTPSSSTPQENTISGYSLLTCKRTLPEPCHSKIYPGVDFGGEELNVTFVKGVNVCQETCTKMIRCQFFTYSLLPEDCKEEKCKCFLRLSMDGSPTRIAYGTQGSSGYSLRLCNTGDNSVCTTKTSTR
UniProt P03952, 391-638 limits assumed: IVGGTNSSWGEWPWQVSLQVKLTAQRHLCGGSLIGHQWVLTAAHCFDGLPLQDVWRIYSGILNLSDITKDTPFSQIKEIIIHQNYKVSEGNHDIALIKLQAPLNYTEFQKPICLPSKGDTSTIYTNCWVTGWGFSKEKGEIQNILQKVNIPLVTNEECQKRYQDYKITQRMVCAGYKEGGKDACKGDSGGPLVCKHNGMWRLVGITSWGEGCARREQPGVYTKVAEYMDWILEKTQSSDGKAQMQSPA

Target: plasma kallikrein (Homo sapiens, UniProt P03952)
Experiment: Phase 1 study: ex vivo PKa catalytic activity in DXS-stimulated undiluted plasma
Set-up: PD measurements were determined in dextran sulfate (DXS) stimulated undiluted plasma using a fluorogenic enzyme assay; from tissue; host or cells: undiluted plasma of healthy adult male volunteers after oral dosing, DXS-stimulated ex vivo
Conditions: 600 mg tablet, by 30 minutes, fed and fasted state
Procedure: PD measurements were determined in dextran sulfate (DXS) stimulated undiluted plasma using a fluorogenic enzyme assay and capillary based HK cleavage immunoassay.
The time until appearance of detectable amidolytic enzyme activity in DXS-stimulated plasma (lag time) was calculated from the catalytic activity assay. The detection sensitivity of the rate of catalytic activity in plasma based on using a Spark (Tecan) fluorimeter is a fluorescence increase to reach 1ΔF unit/sec.

- inhibition at 600 mg: > 90%
SMILES: COCc1nn(Cc2ccc(Cn3ccccc3=O)cc2)cc1C(=O)NCc1nccc(OC)c1F [compound of Formula A, N-[(3-fluoro-4-methoxypyridin-2-yl)methyl]-3-(methoxymethyl)-1-({4-[(2-oxopyridin-1-yl)methyl]phenyl}methyl)pyrazole-4-carboxamide]
